Test results from US11845808B2, “Peptide inhibitors of interleukin-23 receptor and their use to treat inflammatory diseases” (Janssen Biotech, Inc., priority 2020, dated 2023).

Assays:
IL-23R = biological target: T1, IL-23R (Homo sapiens, UniProt Q5VWK5); assay: DB cells IL23R pSTAT3 cell assay (pStat3 HTRF); type: cell-based; settings: IL-23R-expressing DB cells, IL-23 0.5 nM, 30 minutes
T1 construct: examines the levels of pSTAT3 in IL-23R-expressing DB cells when stimulated with IL-23; host or cells: DB cells
T1 sequence (Q5VWK5 24-629): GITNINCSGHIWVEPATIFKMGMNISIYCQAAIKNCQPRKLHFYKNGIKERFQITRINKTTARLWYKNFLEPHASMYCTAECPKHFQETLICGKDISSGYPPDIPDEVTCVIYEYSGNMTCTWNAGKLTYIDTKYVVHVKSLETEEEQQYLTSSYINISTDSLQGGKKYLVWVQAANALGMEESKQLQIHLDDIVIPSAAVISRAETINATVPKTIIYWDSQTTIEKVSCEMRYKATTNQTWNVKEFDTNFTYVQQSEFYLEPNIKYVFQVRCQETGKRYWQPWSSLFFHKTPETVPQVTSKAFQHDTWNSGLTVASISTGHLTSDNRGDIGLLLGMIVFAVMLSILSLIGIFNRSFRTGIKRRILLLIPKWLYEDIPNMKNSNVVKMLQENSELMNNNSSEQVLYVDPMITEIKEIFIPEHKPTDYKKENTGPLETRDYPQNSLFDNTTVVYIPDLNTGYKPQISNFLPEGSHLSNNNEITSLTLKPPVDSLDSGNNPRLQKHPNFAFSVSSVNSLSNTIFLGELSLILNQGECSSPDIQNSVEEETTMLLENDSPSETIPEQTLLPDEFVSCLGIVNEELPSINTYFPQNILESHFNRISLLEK
Text: Human ELISA indicates the IL23-IL23R competitive binding assay described below, Rat ELISA indicates the rat IL-23R competitive binding ELISA assay described below, and pStat3HTRF indicates the DB cells IL-23R pSTAT3 cell assay described below. The peptides depicted in Table E1A and Table E1B are cyclized via a disulfide bridge formed between two Pen residues in these peptides. The peptides depicted in Table E2 are cyclized via a thioether bond between the indicated amino acid residues. Table E2 provides an illustrative structure depicting thioether cyclization, which is indicated in the table by the term “cyclo,” with the cyclic region bracketed immediately following the term “cyclo.” For certain peptides, the residue Abu is present where indicated, whereas in other embodiments, e.g., those related to the non-cyclized form, the Abu may be referred to as a hSer(Cl) or homoSer residue.
DB Cells IL23R pSTAT3 Cell Assay
Where not shown or it is marked as “0”, data was not yet determined.

[1] = biological target: IL-23 stimulated phosphorylated STAT3 in PBMCs (Homo sapiens, UniProt Q5VWK5); assay: PBMC pSTAT3 assay; type: cell-based; settings: PBMCs from healthy donors, IL-23 5 ng/mL, 30 minutes
[2] = Stability in simulated intestinal fluid (SIF); type: in vitro ADME; settings: 100 fold dilution of standard SIF concentration, 37° C., 20 μM
Method in brief: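 Peptides at 20 μM final were incubated at 37 °C in SIF (potassium phosphate with pancreatin, pH 6.8), and reactions were quenched with acetonitrile/1% formic acid at time points from 0 min to 24 h. Percent remaining relative to time 0 was determined by LC-MS/MS against an internal standard, and half-life came from a first-order decay fit.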

[3] = Stability in simulated gastric fluid (SGF); type: in vitro ADME; settings: pepsin, pH=2, 37° C., 20 μM peptide
[4] = Stability in human fecal homogenate; type: in vitro ADME; settings: 20% human fecal homogenate, 37° C., 20 μM
[5] = Stability in cynomolgus monkey fecal homogenate; type: in vitro ADME; settings: 20% cynomolgus monkey fecal homogenate, 37° C., 20 μM
Stability in rat plasma = type: in vitro ADME; settings: SD rat plasma, 37° C., 20 μM
[6] = biological target: IL-23 induced IFNγ in natural killer (NK) cells (Homo sapiens, UniProt Q5VWK5); assay: NK cell based assay (IL-23/IL-18 induced IFNγ); settings: IL-23 at EC50 to EC75 and IL-18 10 ng/mL, IFNγ in supernatant after 20 to 24 hours
Text: Example 3: NK Cell Based Assay

Row | Substance | IC50 (IL-23R) | IC50 [1] | SIF t½ [2] | SGF t½ [3] | t½: Human Feces anaerobic [4] | t½: Monkey Feces anaerobic [5] | t½: Rat Plasma EDTA (Stability in rat plasma) | IC50 [6]
1 | Ac-[Pen]-N-T-[W(7-Me)]-[Lys(Ac)]-[Pen]-Phe[4-(2-aminoethoxy)]-[2-Nal]-[NMe(Lys)]-[Lys(Ac)]-N-[His_3Me]-NH2 [Peptide 145] | 0.029 nM | 0.12 nM | >24.0 h | >24.0 h | >24.0 h | 19.3 h |  | 
2 | Ac-[Pen]-N-T-[W(7-Me)]-[Lys(Ac)]-[Pen]-Phe[4-(2-aminoethoxy)]-[2-Nal]-[THP]-[Lys(Ac)]-N-[3Pal]-[Sarc]-NH2 [Peptide 133] | 0.06 nM |  | 13.8 h | >24.0 h |  |  | >24.0 h | 
3 | Ac-[Pen]-E-T-[W(7-Ph)]-[Lys(Ac)]-[Pen]-Phe[4-(2-aminoethoxy)]-[2-Nal]-[THP]-[Lys(Ac)]-N-[3Pal]-[Sarc]-NH2 [Peptide 139] | 0.077 nM |  | 16.4 h | >24.0 h | >24.0 h | >24.0 h | >24.0 h | 
4 | Ac-[Pen]-N-T-[W(7-(3-carboxamidophenyl))]-[Lys(Ac)]-[Pen]-Phe[4-(2-aminoethoxy)]-[2-Nal]-[THP]-E-N-[3Pal]-[Sarc]-NH2 [Peptide 142] | 0.09 nM |  | >24.0 h | >24.0 h | >24.0 h | >24.0 h | >24.0 h | 
5 | Ac-[Pen]-E-T-[W(7-Me)]-[Lys(Ac)]-[Pen]-Phe[4-(2-aminoethoxy)]-[2-Nal]-[THP]-[Lys(Ac)]-N-[3Pal]-[Sarc]-NH2 [Peptide 138] | 0.054 nM |  | 9 h | >24.0 h | >24.0 h | >24.0 h | >24.0 h | 
6 | Ac-[Abu]-Q-T-[W(7-Me)]-Q-[Cys]-Phe[4-(2-aminoethoxy)]-[2-Nal]-[THP]-E-N-[3Pal]-[Sarc]-NH2 [Peptide 109] | 0.041 nM |  | 14.1 h | 17 h | 3 h | 12.6 h | >24.0 h | 
7 | Ac-[Pen]-N-T-[W(7-Ph)]-[Lys(Ac)]-[Pen]-Phe[4-(2-aminoethoxy)]-[2-Nal]-[THP]-[Lys(Ac)]-N-[3Pal]-[Sarc]-NH2 [Peptide 117] | 0.02 nM |  | >24.0 h | >24.0 h |  |  | >24.0 h | 0.0281 nM
